What was measured:
MCF-7 cells = conditions: read-out: MCF-7 50% cell growth inhibition; 72 hours
TrxR = TrxR (Homo sapiens, UniProt Q16881); experiment: Thioredoxin reductase (TrxR) DTNB reduction assay; conditions: read-out: TrxR IC50; calculated from 5 concentrations (0.1 to 50 μM)
[1] = test system: mouse embryonic fibroblasts transformed with SV40 large T antigen; experiment: Proliferation of SV40 transformed mouse embryonic fibroblasts; conditions: read-out: concentration required to inhibit growth by 50%; data not shown
MDA-MB-231 cells = experiment: Antiproliferative assay, MDA-MB-231 cells; conditions: 72 hours
Trx-1/TrxR = Trx-1/TrxR (Homo sapiens, UniProt P10599+Q16881); experiment: Trx-1/TrxR-dependent insulin reducing assay; conditions: read-out: Trx-1/TrxR IC50; calculated from 5 concentrations (0.1 to 50 μM)

Sequences of proteins named here, by UniProt entry; tags and fusion partners are left off. Residues count along the entry.
UniProt Q16881, 151-649: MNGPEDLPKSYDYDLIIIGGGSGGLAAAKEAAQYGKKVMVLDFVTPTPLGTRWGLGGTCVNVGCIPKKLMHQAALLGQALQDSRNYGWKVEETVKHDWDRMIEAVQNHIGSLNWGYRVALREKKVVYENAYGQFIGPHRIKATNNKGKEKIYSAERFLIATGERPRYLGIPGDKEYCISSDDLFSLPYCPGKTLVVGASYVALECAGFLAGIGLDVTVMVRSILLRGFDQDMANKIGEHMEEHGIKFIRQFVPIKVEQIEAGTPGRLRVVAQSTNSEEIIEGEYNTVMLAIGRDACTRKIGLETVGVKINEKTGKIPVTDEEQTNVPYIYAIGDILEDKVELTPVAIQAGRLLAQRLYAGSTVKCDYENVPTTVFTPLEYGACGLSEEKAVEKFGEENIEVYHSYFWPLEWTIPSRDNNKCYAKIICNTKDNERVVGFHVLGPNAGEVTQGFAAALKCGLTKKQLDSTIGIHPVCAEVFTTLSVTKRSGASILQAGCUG
UniProt P10599, whole entry: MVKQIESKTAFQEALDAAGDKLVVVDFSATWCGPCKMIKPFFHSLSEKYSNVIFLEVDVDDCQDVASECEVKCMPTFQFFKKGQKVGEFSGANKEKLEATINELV

| Compound | IC50 (MCF-7 cells) | IC50 (TrxR) | other results |
| --- | --- | --- | --- |
| O=C1C=CC2(Oc3cccc4cccc(c34)O2)c2cccc(OCc3ccc(Cl)cc3)c21 | > 10 µM | > 50 µM |  |
| O=C1C2OC2C2(Oc3cccc4cccc(c34)O2)C23OC12C(O)C=CC3=O (centres unmarked) | 1.5 µM | 13.5 µM | IC50 [1]: 3 µM; sensitivity of MDA-MB-231 cells, in words (MDA-MB-231 cells; FIG. 23 Panel B): equally sensitive; IC50 (MDA-MB-231 cells; read-out: MDA-MB-231 50% cell growth inhibition): 2 µM; IC50 (Trx-1/TrxR): 4.5 µM |
| O=C1C=CC2(Oc3cccc4cccc(c34)O2)c2cccc(OCc3ccc(Br)cc3)c21 | > 10 µM | > 50 µM |  |
| C=C(C)COc1cccc2c1C(=O)C=CC21Oc2cccc3cccc(c23)O1 |  | > 50 µM |  |
| O=C1C=CC2(Oc3cccc4cccc(c34)O2)c2cccc(OCc3ccc(-c4cccc(C(F)(F)F)c4)o3)c21 |  | > 50 µM |  |
| O=C1C=CC2(Oc3cccc4cccc(c34)O2)c2cccc(OCc3ccc(-c4cccc(Cl)c4)o3)c21 | > 10 µM | > 50 µM |  |
| O=C1C=CC2(Oc3cccc4cccc(c34)O2)c2cccc(OCc3ccc(-c4ccccc4C(F)(F)F)o3)c21 | 5 µM | > 50 µM |  |
| O=C1C=CC2(Oc3cccc4cccc(c34)O2)c2cccc(OCc3ccc(-c4ccccc4Cl)o3)c21 | > 10 µM | > 50 µM |  |
| C#CCOc1cccc2c1C(=O)C=CC21Oc2cccc3cccc(c23)O1 |  | > 50 µM |  |
| CC(C)=CCOc1cccc2c1C(=O)C=CC21Oc2cccc3cccc(c23)O1 | 2 µM |  |  |

Source: patent US6673937B2, “Syntheses and methods of use of new antimitotic agents” (The University of Pittsburgh, priority 2000, dated 2004)
